Where two headings read alike, the source gives them in different places.

This is an account of results in patent US9717725B2, “Use of opioid antagonists” (THE UNIVERSITY OF CHICAGO, priority 2005, dated 2017).

This experiment relates to Human Microvascular Endothelial Cells (HMVEC). Conditions: for endothelial cell migration (number of cells migrated per 10 high power fields): substance alone, 0.001 to 10.0 μM, 4 hours at 37° C.

For `C[C@@H](NC(=O)[C@@H](N)Cc1ccc(O)cc1)C(=O)NCC(=O)N(C)[C@@H](Cc1ccccc1)C(=O)NCCO` [DAMGO, [D-Ala^2, N-McPhe^4, Gly^5-ol]-enkephalin], the “endothelial cell migration (number of cells migrated per 10 high power fields)” value is recorded as “induced migration in a concentration dependent fashion”.

With `CN1CC[C@]23c4c5ccc(O)c4O[C@H]2[C@@H](O[C@@H]2O[C@H](C(=O)O)[C@@H](O)[C@H](O)[C@H]2O)C=C[C@H]3[C@H]1C5` [M6G, morphine 6-glucuronide], the “endothelial cell migration (number of cells migrated per 10 high power fields)” value was “exhibits a concentration-dependent effect on angiogenesis”.

As to `C[N@+]1(CC2CC2)CC[C@]23c4c5ccc(O)c4O[C@H]2C(=O)CC[C@@]3(O)[C@H]1C5` [methylnaltrexone, N-methylnaltrexone], the “dose attenuating morphine-based endothelial cell migration (as low as)” value is listed as 10^−8 μM. Moreover, the “attenuation of morphine-induced endothelial cell migration” value (morphine constant at 0.1 μM, antagonist 0.001 to 10.0 μM, listed as MNTX) is “attenuated”. Besides, the “endothelial cell migration (number of cells migrated per 10 high power fields)” value (listed as MNTX) is listed as “had no effect on endothelial cell migration”.

In the case of `CN1CC[C@]23c4c5ccc(O)c4O[C@H]2[C@@H](O)C=C[C@H]3[C@H]1C5` [morphine], the “concentration causing endothelial cell migration” value was found to be 100 ng/mL.
